For the assay, the target named is T1, MCL-1/FITC-BID (Homo sapiens, UniProt Q07820).
T1 construct: made in house
Put plainly: Fluorescence anisotropy competition assay, MCL-1/FITC-BID. It is filed as binding. A general note: Fluorescence polarisation rises when a labelled molecule tumbles more slowly, as on binding a larger partner.

Protein sequences, listed by entry. Tags and fused reporters are not part of them. Residues count along the entry.
UniProt Q07820, 173-327 limits assumed: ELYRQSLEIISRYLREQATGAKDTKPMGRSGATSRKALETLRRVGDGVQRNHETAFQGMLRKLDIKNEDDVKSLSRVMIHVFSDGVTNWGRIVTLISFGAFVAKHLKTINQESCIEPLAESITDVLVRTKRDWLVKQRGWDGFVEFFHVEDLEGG

Molecule `CC[C@H](C)[C@H](NC(=O)[C@H](CCCNC(=N)N)NC(=O)[C@H](CCCNC(=N)N)NC(=O)[C@H](CC(C)C)NC(=O)[C@H](CCC(N)=O)NC(=O)[C@H](C)NC(=O)[C@H](C)NC(C)=O)C(=O)NCC(=O)N[C@@H](CC(=O)O)C(=O)N[C@@H](CCCCN)C(=O)N[C@H](C(=O)N[C@@H](CC(N)=O)C(=O)N[C@@H](CC(C)C)C(=O)N[C@@H](CCCNC(=N)N)C(=O)N[C@@H](CCC(N)=O)C(=O)N[C@@H](CCCCN)C(=O)N[C@@H](CC(C)C)C(=O)N[C@@H](CC(C)C)C(=O)N[C@@H](CC(N)=O)C(N)=O)C(C)C` [wt NOXA-B, reference compound] returned an IC50 of 375 ± 22 nM.

The IC50 is the concentration at which inhibition is half-maximal.
